Reference: US9603820B2, “Ornithine aminotransferase inhibition with GABA analogues for treatment of hepatocellular carcinoma” (Northwestern University, priority 2014, dated 2017)

Amino acid sequences for entries named in this document (tags omitted).
UniProt P10635, whole entry: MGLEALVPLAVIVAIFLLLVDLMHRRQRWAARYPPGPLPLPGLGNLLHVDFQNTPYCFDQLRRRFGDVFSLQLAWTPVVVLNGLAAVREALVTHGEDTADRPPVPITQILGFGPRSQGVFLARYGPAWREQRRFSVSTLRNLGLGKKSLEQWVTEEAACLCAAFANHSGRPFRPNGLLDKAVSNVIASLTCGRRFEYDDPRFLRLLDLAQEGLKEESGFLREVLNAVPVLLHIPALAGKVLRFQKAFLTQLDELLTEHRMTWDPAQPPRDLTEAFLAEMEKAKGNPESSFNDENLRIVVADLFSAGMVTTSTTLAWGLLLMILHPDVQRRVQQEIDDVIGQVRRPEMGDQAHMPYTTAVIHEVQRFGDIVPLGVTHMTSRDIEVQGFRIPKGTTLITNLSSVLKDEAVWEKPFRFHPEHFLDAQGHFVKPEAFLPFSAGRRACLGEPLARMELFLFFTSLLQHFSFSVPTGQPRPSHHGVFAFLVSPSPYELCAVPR
UniProt P11712, whole entry: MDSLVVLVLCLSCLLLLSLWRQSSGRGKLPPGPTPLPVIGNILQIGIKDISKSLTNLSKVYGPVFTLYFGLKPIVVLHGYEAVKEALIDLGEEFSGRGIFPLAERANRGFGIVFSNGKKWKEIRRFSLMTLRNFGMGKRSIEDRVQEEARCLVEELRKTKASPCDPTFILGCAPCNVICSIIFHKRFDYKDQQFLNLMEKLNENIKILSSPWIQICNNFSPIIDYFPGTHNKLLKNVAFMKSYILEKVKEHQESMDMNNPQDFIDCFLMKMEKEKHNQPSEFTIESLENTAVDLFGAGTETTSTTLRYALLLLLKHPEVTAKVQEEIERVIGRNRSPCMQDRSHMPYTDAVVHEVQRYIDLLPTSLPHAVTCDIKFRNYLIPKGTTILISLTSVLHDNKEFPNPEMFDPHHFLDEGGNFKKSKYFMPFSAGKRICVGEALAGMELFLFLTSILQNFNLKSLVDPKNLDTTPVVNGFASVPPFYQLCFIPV
UniProt P33261, whole entry: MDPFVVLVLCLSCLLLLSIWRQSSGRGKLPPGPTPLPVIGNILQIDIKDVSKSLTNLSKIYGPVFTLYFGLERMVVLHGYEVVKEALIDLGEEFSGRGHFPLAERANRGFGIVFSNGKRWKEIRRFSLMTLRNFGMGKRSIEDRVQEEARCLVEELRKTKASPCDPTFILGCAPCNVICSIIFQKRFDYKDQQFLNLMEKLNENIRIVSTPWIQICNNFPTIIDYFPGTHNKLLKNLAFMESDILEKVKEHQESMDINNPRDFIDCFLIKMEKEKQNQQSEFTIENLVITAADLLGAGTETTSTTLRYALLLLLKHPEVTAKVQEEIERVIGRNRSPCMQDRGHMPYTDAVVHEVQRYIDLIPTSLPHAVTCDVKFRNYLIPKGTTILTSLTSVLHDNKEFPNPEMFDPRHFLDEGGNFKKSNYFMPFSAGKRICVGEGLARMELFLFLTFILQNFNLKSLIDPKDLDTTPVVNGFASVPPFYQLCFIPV

Columns and labels:
CYP2D6 = CYP2D6 (Homo sapiens, UniProt P10635); settings: microsomes
CYP3A4/5 [1] = test: CYP inhibition in human liver microsomes; type: in vitro ADME
CYP2B6 = target: T1, CYP2B6 (Homo sapiens, UniProt P20813); settings: microsomes
T1 sequence (P20813 1-491): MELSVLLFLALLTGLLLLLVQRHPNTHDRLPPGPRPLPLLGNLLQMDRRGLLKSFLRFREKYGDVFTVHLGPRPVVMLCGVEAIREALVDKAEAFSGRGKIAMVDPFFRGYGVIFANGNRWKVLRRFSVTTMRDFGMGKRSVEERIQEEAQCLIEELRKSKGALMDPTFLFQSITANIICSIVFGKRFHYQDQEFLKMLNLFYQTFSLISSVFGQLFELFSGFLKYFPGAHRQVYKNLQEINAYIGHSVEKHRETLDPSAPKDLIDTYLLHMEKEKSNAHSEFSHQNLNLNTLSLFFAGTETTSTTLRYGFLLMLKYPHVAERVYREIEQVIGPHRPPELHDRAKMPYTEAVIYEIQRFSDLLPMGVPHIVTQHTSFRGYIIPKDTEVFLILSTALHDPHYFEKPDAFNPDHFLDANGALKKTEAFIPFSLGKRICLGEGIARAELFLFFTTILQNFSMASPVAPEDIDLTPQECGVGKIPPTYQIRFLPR

CYP3A4/5 [2] = test: CYP induction in cultured human hepatocytes; settings: concentrations up to 100 μM, 3 days
CYP2C9 = CYP2C9 (Homo sapiens, UniProt P11712); settings: microsomes
CYP2C19 = CYP2C19 (Homo sapiens, UniProt P33261); type: in vitro ADME; settings: microsomes

## N[C@H]1C[C@@H](C(=O)O)CC1=C(F)F [CPP-115, (1S,3S)-3-amino-4-difluoromethylenyl-1-cyclopentanoic acid]
CYP2D6
  time- or metabolism-dependent inhibition of CYP2D6: little or no evidence of either time- or metabolism-dependent inhibition
CYP3A4/5 [1]
  time- or metabolism-dependent inhibition of CYP3A4/5: little or no evidence of either time- or metabolism-dependent inhibition
CYP2B6
  time- or metabolism-dependent inhibition of CYP2B6: little or no evidence of either time- or metabolism-dependent inhibition
CYP3A4/5 [2]
  induction of CYP3A4/5 activity: not an inducer
CYP2C9
  time- or metabolism-dependent inhibition of CYP2C9: little or no evidence of either time- or metabolism-dependent inhibition
CYP2C19
  time- or metabolism-dependent inhibition of CYP2C19: little or no evidence of either time- or metabolism-dependent inhibition
